Measured values taken from US6924314B2, “Compounds for the treatment of metabolic disorders” (Wellstat Therapeutics Corporation, priority 2001, dated 2005).

System: ob/ob mice
Test: Hyperglycemia, hyperlipidemia, fatty liver disease and weight gain in ob/ob obese diabetic mice, daily oral dosing
Assay type: in vivo, C57BL/6 mice
Conditions: serum, 4 weeks
Source text: Ob/ob mice have a defect in the gene for leptin, a protein involved in appetite regulation and energy metabolism, and are hyperphagic, obese, and insulin resistant. They develop hyperglycemia and fatty liver.

CN(CCOc1ccc(CC2SC(=O)NC2=O)cc1)c1ccccn1 (stereo not drawn) [Rosiglitazone, rosiglitazone]
ALT (U/L) ± SEM (1 mg/kg/day oral): 668.8 ± 42.9 U/L | AST (U/L) ± SEM (1 mg/kg/day oral): 798.0 ± 73.8 U/L | SDH (U/L) ± SEM (1 mg/kg/day oral): 644.5 ± 51.6 U/L | ALT (U/L) ± SEM (3 mg/kg/day oral): 716.6 ± 56.6 U/L | AST (U/L) ± SEM (3 mg/kg/day oral): 853.8 ± 43.8 U/L | SDH (U/L) ± SEM (3 mg/kg/day oral): 615.4 ± 38.6 U/L | ALT (U/L) ± SEM (10 mg/kg/day oral): 713.6 ± 80.5 U/L | AST (U/L) ± SEM (10 mg/kg/day oral): 1024.0 ± 88.7 U/L | SDH (U/L) ± SEM (10 mg/kg/day oral): 782.0 ± 70.6 U/L | ALT (U/L) ± SEM (30 mg/kg/day oral): 646.0 ± 56.1 U/L | AST (U/L) ± SEM (30 mg/kg/day oral): 901.2 ± 49.3 U/L | SDH (U/L) ± SEM (30 mg/kg/day oral): 603.0 ± 27.3 U/L
